Only a part is listed here, and it is no random draw. Inconclusive results are not listed. Calls of active or inactive are those of the source. The call rests on the fitted dose curve; in most records, active means well fitted inhibition curve with a large enough effect; inconclusive means small, poorly fitted or top-dose-only effect; inactive means flat fitted curve, though single readings scatter.

In this assay the target is Dual specificity tyrosine-phosphorylation-regulated kinase 1A (Homo sapiens) (UniProt Q13627). Description: Assay for Inhibitors of Dual-Specificity Tyrosine-(Y)-Phosphorylation Regulated Kinase 1A (Kinase-Glo assay): round 2 SAR. Particulars: recombinant DYRK1A, Kinase-Glo ATP depletion luminescence. From the text: NIH Molecular Libraries Probe Production Centers Network [MLPCN] NIH Chemical Genomics Center [NCGC] MLPCN Grant: 1R03MH084827-01 PI Name: Tom Misteli NCGC Assay Overview: The CMGC group of protein kinases which includes CDK-like kinases (Clk) and Dyks are essential kinases found in all eukaryotes. Clks have been implicated to play a role in the regulation of alternative splicing; while Dyrks, in particular over expression of Dyrk1A, has been linked to diseases as Down syndrome (DS; OMIM 190685) and Alzheimer disease (AD; OMIM 104300). Among the members of the CMGC group, the Clks and the Dyrks are very closely related therefore to determine validity and selectivity of an active compound observed in the CLK4 qHTS screen (AID:1770), a bioluminescent counter-screen against Dyrk1A was developed. […]
NCGC Assay Protocol Summary: Two uL/well of substrate solution (8uM Dyrktide, 2uM ATP, 25mM Tris-HCl pH 7.5, 10mM MgCl2 , 0.5mM EGTA, 5mM cystein, 0.01% Triton X-100 final concentration) was dispensed into 1536-well assay plates (Greiner, solid white, medium-binding plates) with Aurora Discovery BioRAPTR Flying Reagent Dispenser (FRD, Beckton-Dickenson). […] The plates were spun for 30 seconds (1000 rpm) and incubated at ambient temperature for 2 minutes followed by a luminescence read using Perkin Elmer ViewLux plate reader at 3 seconds exposure time and 2x binning.
As for `CCN1/C(=C/C(C)=O)Sc2ccc(OC)cc21`, the Potency was active: 368 nM.

The record behind these values is PubChem BioAssay AID493206 (National Center for Advancing Translational Sciences (NCATS), 2011).
